From patent US9416132B2, “Substituted imidazo[1,2-b]pyridazines as protein kinase inhibitors” (Tolero Pharmaceuticals, Inc., priority 2011, dated 2016) come the findings set out here.

Sequences of proteins named here, by UniProt entry; tags and fusion partners are left off.
UniProt P11309, whole entry: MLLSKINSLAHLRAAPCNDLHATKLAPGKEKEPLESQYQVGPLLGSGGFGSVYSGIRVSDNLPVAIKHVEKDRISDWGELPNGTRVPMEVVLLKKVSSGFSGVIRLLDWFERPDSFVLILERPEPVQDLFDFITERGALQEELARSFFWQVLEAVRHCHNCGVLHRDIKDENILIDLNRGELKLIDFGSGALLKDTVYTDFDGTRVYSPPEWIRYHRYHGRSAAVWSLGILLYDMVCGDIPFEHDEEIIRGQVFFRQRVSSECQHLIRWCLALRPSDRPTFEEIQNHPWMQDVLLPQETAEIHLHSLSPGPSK

The target of the assay is PIM-1 (Homo sapiens (Human), UniProt P11309). The assay is described as follows: Pim-1 kinase inhibition assay (Promega Kinase-Glo). Type of assay: biochemical. To be noted: Table IV, read-out: Compound IC50 on Pim1. Background: Kinase-Glo reads ATP consumption through a luciferase reaction.

For `CO[C@H]1CC[C@H](Nc2ccc3ncc(-c4cccc(OC(F)(F)F)c4)n3n2)CC1` [Compound 8-11, 4-(trans-Methoxycyclohexyl)-3-(3-(trifluoromethoxy)phenyl)imidazo[1,2-b]pyridazin-6-amine], the IC50 came out at 8 nM.

As a reminder, the IC50 is the midpoint of a concentration-inhibition curve.
